Results: patent US20230407304A1, “USE OF MICRORNA INHIBITION TO PREVENT AND TREAT OSTEOARTHRITIS AND OTHER INFLAMMATORY DISEASES” (VIRGINIA COMMONWEALTH UNIVERSITY, priority 2020, published 2023)

Assays:
[1] = system: rat articular chondrocytes (rArCs); assay: WNT/β-catenin agonist or antagonist treatment of rArCs with or without IL-1β; assay type: cell-based
[2] = system: rat articular chondrocytes (rArCs); assay: WNT/β-catenin agonist or antagonist treatment of rArCs with or without TNF-α; assay type: cell-based

With lithium chloride the MMP-13 production ([1]; compound alone, increasing concentrations, no IL-1β) was “decrease in MMP-13 production”, the MMP-13 production ([1]; compound plus 10 ng/mL IL-1β) was “decrease in MMP-13 production” and the MMP-13 production ([2]; LiCl 5 mM or 10 mM plus 10 ng/mL TNF-α) was “no differences in MMP-13 production”. For the same substance, the MMP-13 production ([2]; compound alone, no TNF-α) was “no differences in MMP-13 production”.
